Drawing on patent publication US11236085B2, “PD-1/PD-L1 inhibitors” (Gilead Sciences, Inc., priority 2018, dated 2022), this text covers EC50, AC50 and IC50 for one molecule.

The chains behind the UniProt entries cited, without tags or fusion partners. Residues count along the entry.
UniProt Q9NZQ7, 19-238 limits assumed: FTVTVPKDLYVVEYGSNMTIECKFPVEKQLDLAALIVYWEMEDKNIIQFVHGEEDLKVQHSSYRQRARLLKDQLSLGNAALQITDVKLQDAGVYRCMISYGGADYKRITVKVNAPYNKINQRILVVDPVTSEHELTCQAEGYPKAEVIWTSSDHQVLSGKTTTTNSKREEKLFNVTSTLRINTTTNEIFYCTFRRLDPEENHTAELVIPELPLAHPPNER
UniProt Q9NZQ7, 19-290 limits assumed: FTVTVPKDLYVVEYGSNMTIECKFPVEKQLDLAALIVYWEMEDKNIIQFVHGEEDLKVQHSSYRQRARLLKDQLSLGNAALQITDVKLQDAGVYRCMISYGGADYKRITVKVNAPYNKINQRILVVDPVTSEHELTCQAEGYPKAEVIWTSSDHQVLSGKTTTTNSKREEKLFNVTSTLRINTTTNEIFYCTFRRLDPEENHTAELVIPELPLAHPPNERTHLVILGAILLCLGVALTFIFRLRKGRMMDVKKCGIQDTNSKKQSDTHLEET

Assay [1] concerns the target T1, PD-1/PD-L1 (Homo sapiens, UniProt Q9NZQ7). In words: PD-1/PD-L1 NFAT reporter assay (co-culture of aAPC-PD-L1 CHO cells and Jurkat cells overexpressing PD-1, NFAT luciferase). The following applies: read-out: EC50 NFAT Luciferase; co-culture incubated for 6 hrs at 37° C.; luciferase under NFAT control. The method, then: PD-1/PD-L1 NFAT Reporter Assay
Compounds were tested in a functional co-culture reporter assay in which TCR-mediated NFAT activity is inhibited by the engagement of PD-1 with PD-L1. […] CHO cells expressing surface-bound anti-CD3 antibodies and PD-L1 (artificial antigen presenting cells, aAPC-PD-L1) were first seeded overnight. Jurkat cells overexpressing PD-1 and expressing a luciferase construct under NFAT control are diluted in RPMI assay medium (RPMI 1640 with 2% FBS), mixed with compounds, and immediately seeded on the monolayer of aAPC-PD-L1. The co-culture is then incubated for 6 hrs at 37° C. Luciferase activity is assessed by adding the ONE-Glo reagent and measuring luminescence with a plate reader. EC50 values are calculated from the fit of the dose-response curves to a four-parameter equation (Table 4).

In assay [2] the target is PD-L1 (Homo sapiens, UniProt Q9NZQ7). In words: PD-L1/PD-L1 dimerization biochemical protein-protein interaction assay (ALPHA). The settings on record: read-out: AC50 PDL1 Dimer 1 nM; 0.5 nM His tagged PD-L1 and 0.5 nM FLAG tagged PD-L1; compound induced dimerization. On the procedure:
PD-L1/PD-L1 Dimerization Biochemical Protein-Protein Interaction Assay
Compounds were tested in biochemical protein-protein interaction assays to determine if they can specifically dimerize the extracellular domains of PD-L1. Dimerization of the proteins (His-tagged PD-L1 and FLAG-tagged PD-L1) is measured using a bead based Amplified Luminescent Proximity Homogeneous Assay (ALPHA) platform. […] Assays are performed in 25 mM Hepes (pH 7.4), 150 mM NaCl, 3.4 mM EDTA, 0.005% Tween 20, and 0.01% BSA. Final protein concentration in the assays were 0.5 nM (His tagged PD-L1) and 0.5 nM (FLAG tagged PD-L1). After an assay reaction time of 2 hours at 25° C., 20 μg/mL (final assay concentration) ALPHA assay acceptor beads (anti-His coated) were added and incubated for 60 minutes at 25° C. Binding was measured following a final 60 minute incubation with 40 μg/mL (final assay concentration) ALPHA assay donor beads (anti-FLAG coated). AC50 values were calculated from the fit of the dose-response curves to a four-parameter equation (Table 4).

Assay [3] has as its target T1, PD-1/PD-L1. Description: PD-1/PD-L1 biochemical protein-protein interaction assay (ALPHA). The settings on record: read-out: IC50 PD-L1-PD1; 0.3 nM His tagged PD-L1, 2.5 nM biotinylated Fc-PD-1; 60 minutes at 25° C. The method, then:
PD-1/PD-L1 & CTLA/CD80 Biochemical Protein-Protein Interaction Assay
Compounds were tested in biochemical protein-protein interaction assays to determine if they can specifically block the interaction between the extracellular domains of PD-1/PD-L1 or CTLA/CD80. Binding of the protein pairs is measured using a bead based Amplified Luminescent Proximity Homogeneous Assay (ALPHA) platform. Binding of each protein pair results in proximity of the donor and acceptor beads which leads to an increase in ALPHA signal. Disruption of the protein-protein interaction with a test compound results in a decrease in ALPHA signal. Assays are performed in 25 mM Hepes (pH 7.4), 150 mM NaCl, 3.4 mM EDTA, 0.005% Tween 20, and 0.01% BSA. Final protein concentration in the assays were 0.3 nM (His tagged PD-L1), 2.5 nM (biotinylated Fc-PD-1), 1 nM (His tagged CTLA4) and 1 nM (biotinylated CD80). After an assay reaction time of 60 minutes at 25° C., binding was measured with addition of 20 μg/mL ALPHA assay acceptor beads (anti-His coated) and 20 µg/mL ALPHA assay donor beads (streptavidin coated). IC50 values were calculated from the fit of the dose-response curves to a four-parameter equation. Representative data are shown below in Table 3.

As usually defined, the EC50 is the concentration that produces a half-maximal response. The term AC50 denotes the concentration at which the activity in the assay is half-maximal. What is called IC50 is the point on the concentration scale where inhibition reaches its midpoint. On to `CC(=O)NC1CNCc2cc(-c3cccc(-c4cccc(COc5cc(OCc6cncc(C#N)c6)c(CN[C@@](C)(CO)C(=O)O)cc5Cl)c4C)c3C)ccc21` (stereo partly drawn), for which the half-maximal effective concentration (EC50) in assay [1] worked out at 70 nM. In addition, the half-maximal activity concentration (AC50) in assay [2] is 11.4 nM. Moreover, in assay [3], the 50% inhibitory concentration (IC50) worked out at 0.064 nM.
